Sequences of proteins named here, by UniProt entry; tags and fusion partners are left off. A change or cut given only in a name is not applied to a line headed by its entry.
UniProt P10275: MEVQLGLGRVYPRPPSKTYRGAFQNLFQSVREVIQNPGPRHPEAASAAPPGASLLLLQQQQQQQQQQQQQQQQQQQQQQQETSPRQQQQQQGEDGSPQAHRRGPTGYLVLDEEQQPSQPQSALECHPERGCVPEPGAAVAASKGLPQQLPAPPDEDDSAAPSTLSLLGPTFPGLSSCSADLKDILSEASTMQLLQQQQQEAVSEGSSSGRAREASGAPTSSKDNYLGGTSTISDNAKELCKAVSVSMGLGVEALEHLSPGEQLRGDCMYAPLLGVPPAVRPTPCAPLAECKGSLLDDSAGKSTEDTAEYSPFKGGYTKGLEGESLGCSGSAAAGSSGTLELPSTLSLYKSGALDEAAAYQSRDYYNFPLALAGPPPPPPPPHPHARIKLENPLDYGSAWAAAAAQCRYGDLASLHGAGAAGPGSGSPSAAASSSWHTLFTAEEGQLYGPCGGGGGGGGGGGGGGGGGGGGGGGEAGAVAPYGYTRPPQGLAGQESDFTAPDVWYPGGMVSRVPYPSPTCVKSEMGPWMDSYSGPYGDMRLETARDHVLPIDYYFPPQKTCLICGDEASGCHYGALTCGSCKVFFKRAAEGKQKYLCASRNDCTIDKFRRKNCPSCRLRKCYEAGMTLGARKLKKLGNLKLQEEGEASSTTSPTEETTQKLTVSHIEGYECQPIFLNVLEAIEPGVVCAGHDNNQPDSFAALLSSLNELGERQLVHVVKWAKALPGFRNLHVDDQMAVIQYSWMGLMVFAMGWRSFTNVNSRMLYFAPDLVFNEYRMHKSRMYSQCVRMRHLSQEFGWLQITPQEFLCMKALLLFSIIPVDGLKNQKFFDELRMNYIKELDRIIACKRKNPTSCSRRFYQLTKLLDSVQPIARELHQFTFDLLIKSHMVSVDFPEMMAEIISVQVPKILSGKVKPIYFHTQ

According to patent US6534516B1, “Androgen receptor modulator compounds and methods” (Ligand Pharmaceuticals Incorporated, priority 1996, dated 2003):

What was measured:
[1] = system: immature castrated male rat; assay: Immature castrated male rat model with testosterone silastic implant, ventral prostate and seminal vesicle weights; assay type: in vivo; settings: for Seminal Vesicles weight / Ventral Prostate weight: 3 days
human AR = human AR (Homo sapiens, UniProt P10275)

| Structure (SMILES) | suppression of ventral prostate weight relative to castrate levels (in words) ([1]; 30 mg/kg) | suppression of seminal vesicle weight relative to castrate levels (in words) ([1]; 100 mg/kg) | suppression of ventral prostate weight relative to castrate levels (in words) ([1]; 100 mg/kg) | AR Antagonist CV-1 Cells Efficacy (human AR) [%] | Seminal Vesicles weight ([1]; T implant + 0.1 mg/kg oral) | Ventral Prostate weight ([1]; T implant + 0.1 mg/kg oral) | Seminal Vesicles weight ([1]; T implant + 1 mg/kg oral) | Ventral Prostate weight ([1]; T implant + 1 mg/kg oral) | Seminal Vesicles weight ([1]; T implant + 3 mg/kg oral) | Ventral Prostate weight ([1]; T implant + 3 mg/kg oral) | Seminal Vesicles weight ([1]; T implant + 10 mg/kg oral) | Ventral Prostate weight ([1]; T implant + 10 mg/kg oral) | Seminal Vesicles weight ([1]; T implant + 30 mg/kg oral) | Ventral Prostate weight ([1]; T implant + 30 mg/kg oral) | Seminal Vesicles weight ([1]; T implant + 100 mg/kg oral) | Ventral Prostate weight ([1]; T implant + 100 mg/kg oral) |
| --- | --- | --- | --- | --- | --- | --- | --- | --- | --- | --- | --- | --- | --- | --- | --- | --- |
| CC1(C)CCc2cc3c(C(F)(F)F)cc(=O)[nH]c3cc2N1 [LG120907, 1,2,3,4-Tetrahydro-2,2-dimethyl-6-trifluoromethyl-8-pyridono[5,6-g]quinoline] | only partially efficacious | does not bring the organ weight to castrate levels | suppression to castrate levels | 74 ± 2 |  |  |  |  |  |  |  |  |  |  |  |  |
| CC(O)(CS(=O)(=O)c1ccc(F)cc1)C(=O)Nc1ccc(C#N)c(C(F)(F)F)c1 (stereo not shown) [Casodex] |  |  |  |  | 31.6 ± 1.4 (5) mg/100 g body weight | 76.9 ± 3.7 (5) mg/100 g body weight | 31.1 ± 0.8 (5) mg/100 g body weight | 74.0 ± 6.7 (5) mg/100 g body weight | 27.0 ± 1.0 (5) mg/100 g body weight | 65.8 ± 2.2 (5) mg/100 g body weight | 19.5 ± 1.2 (5) mg/100 g body weight | 50.7 ± 0.9 (5) mg/100 g body weight | 12.0 ± 1.9 (5) mg/100 g body weight | 37.4 ± 3.1 (5) mg/100 g body weight | 8.7 ± 1.0 (5) mg/100 g body weight | 29.4 ± 1.8 (5) mg/100 g body weight |
